Reference: ChEMBL document CHEMBL1133648, “Synthesis, stability, antiviral activity, and protease-bound structures of substrate-mimicking constrained macrocyclic inhibitors of HIV-1 protease” (J Med Chem, 2000)

Experiment: Selective index is the ratio of CC10 to that of IC90
Format: functional
Procedure, shortened: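 SI = CC₁₀ / IC₉₀. CC₁₀ is the highest noncytotoxic concentration in uninfected-cell cytotoxicity wells, counted by trypan blue exclusion after 6–7 days; counts below 90% of the cell-only control are treated as toxic. […] Cultures are run in duplicate.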

Work on `CC(C)CN(C[C@@H](O)[C@H](Cc1ccccc1)NC(=O)O[C@H]1CCOC1)S(=O)(=O)c1ccc(N)cc1` yielded an SI of 125.
